Biological target: recombinant human CHIT1 (Homo sapiens (Human), UniProt Q13231)
Test: Human CHIT1 Activity Assay
Assay type: biochemical
Details: read-out: Activity on hCHIT1, IC50; recombinant human CHIT1, citrate buffer pH 5.2, 37° C., 60 minutes

Sequences of proteins named here, by UniProt entry; tags and fusion partners are left off. Residues count along the entry.
UniProt Q13231, 22-466: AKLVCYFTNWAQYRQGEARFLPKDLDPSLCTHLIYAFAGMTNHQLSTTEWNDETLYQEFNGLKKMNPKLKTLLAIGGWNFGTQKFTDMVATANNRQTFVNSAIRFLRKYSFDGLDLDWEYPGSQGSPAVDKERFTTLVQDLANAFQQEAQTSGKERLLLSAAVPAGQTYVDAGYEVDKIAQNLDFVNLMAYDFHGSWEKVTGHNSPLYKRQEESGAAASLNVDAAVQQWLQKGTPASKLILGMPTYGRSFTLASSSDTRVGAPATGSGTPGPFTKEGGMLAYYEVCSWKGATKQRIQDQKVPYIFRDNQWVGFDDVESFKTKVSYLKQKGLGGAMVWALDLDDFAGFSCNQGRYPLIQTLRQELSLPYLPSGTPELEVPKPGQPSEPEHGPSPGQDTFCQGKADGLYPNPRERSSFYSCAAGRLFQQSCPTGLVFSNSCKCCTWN

CS(=O)(=O)N1C[C@H](Cc2ccc(Cl)cc2)N(C2CCN(c3nnc(N)[nH]3)CC2)C[C@@H]1Cc1ccc(Cl)cc1 [Example 36, 5-(4-((2S,5S)-2,5-bis(4-chlorobenzyl)-4-(methylsulfonyl)piperazin-1-yl)piperidin-1-yl)-4H-1,2,4-triazol-3-amine]
IC50: 10 to 100 µM
